Experimental data reported in US6153614A, “Piperazinyl pyrimidine dione compounds selective for adrenoceptors” (Abbott Laboratories, priority 1998, dated 2000).

Target: T1, α1A adrenoceptor (rat submaxillary gland) (Rattus norvegicus, UniProt P43140)
T1 construct: from tissue; host or cells: rat submaxillary gland membranes
T1 sequence (P43140 1-466): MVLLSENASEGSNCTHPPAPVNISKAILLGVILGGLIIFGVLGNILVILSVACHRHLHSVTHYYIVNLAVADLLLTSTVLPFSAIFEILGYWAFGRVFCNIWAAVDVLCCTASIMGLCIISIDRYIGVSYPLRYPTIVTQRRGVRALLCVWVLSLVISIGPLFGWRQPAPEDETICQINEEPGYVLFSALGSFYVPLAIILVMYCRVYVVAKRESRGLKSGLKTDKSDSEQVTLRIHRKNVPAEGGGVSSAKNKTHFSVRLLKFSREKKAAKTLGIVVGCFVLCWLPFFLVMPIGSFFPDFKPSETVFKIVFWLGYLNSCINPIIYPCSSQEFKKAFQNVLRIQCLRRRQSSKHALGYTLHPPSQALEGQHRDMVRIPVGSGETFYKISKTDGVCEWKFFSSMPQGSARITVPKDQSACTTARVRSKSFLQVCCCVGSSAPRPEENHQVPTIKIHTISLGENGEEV
Experiment: Radioligand binding α1A (rat submaxillary gland), [3H]-prazosin
Details: [3H]prazosin 0.2 nM
Description: Representative compounds of the invention were evaluated for α-adrenoceptor binding affinity in vitro using [^3 H]-prazosin as the radioligand and two cloned α1 adrenoceptors expressed in LTK cells: α1b (hamster), and α1d (rat). Additionally, binding affinity against the pharmacologically defined α1A adrenoceptor (rat submaxillary gland) was measured.
On the fifth day of culture, growth medium was removed from cells grown in the roller bottles, and the cells were washed twice with PBS (Sigma, 120 mM NaCl, 2.7 mM KCl, 10 mM Na2 HPO4 --NaH2 PO4, pH=7.4). Cells were detached from the roller bottles by incubating for 15 minutes at 37° C. in a Tris-EDTA solution (10 mM Tris, 100 mM NaCl, 1 mM EDTA, pH=7.4). […]
Briefly, plastic Bioblocks™ (DBM Scientific, Valencia, Calif.) were incubated at 25° C. for 50 minutes with […] of membrane homogenate (diluted with an additional 96 volumes (for cloned adrenoceptors, 12 volumes for submaxillary gland)) in 50 mM Tris-HCl buffer (pH=7.7 at the time of assay), […] of [^3 H]prazosin (0.2 nM final concentration, 75-85 Ci/mmole, DuPont-NEN Corp., Boston, Mass.), and […] of either water (for total binding) or […] phentolamine (final concentration, for non-specific binding). […] Radioactivity was determined by standard liquid scintillation techniques.

- Ki: 0.823 nM
SMILES: COc1cc2nc(N3CCN(C(=O)C4CCCO4)CC3)nc(N)c2cc1OC (stereo not shown) [terazosin]
